Earlier results in patent US11752199B1, “Methods of modulating pericytes” (MALLINCKRODT ARD IP UNLIMITED COMPANY, priority 2020, dated 2023).

The chains behind the UniProt entries cited, without tags or fusion partners.
UniProt P32245, whole entry, species assumed: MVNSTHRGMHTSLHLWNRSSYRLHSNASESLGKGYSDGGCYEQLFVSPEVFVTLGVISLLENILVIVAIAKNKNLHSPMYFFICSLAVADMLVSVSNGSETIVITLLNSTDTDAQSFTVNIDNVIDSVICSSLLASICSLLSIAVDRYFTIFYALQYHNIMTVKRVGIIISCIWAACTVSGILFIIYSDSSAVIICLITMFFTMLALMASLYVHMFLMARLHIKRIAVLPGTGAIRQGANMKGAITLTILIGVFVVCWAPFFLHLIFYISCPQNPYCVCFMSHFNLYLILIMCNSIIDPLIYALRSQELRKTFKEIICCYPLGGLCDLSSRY

Molecular target: MC4R (Homo sapiens, UniProt P32245)
Conditions: compared with α-MSH

Substance: NDP-α-MSH
- MC4R agonist potency relative to α-MSH: more potent
